# scFv variants of Ab-14 (heavy chain) against a SARS-CoV-2 spike peptide

The target is the same throughout: PDVDLGDISGINAS, from the HR2 region of SARS-CoV-2 spike.

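Phage display of a naive human antibody library on the peptide gave the parent. These sequences belong to a second round, designed from the earlier measurements on random variants of the parent. Group labels follow the data file (Ctrl: baseline library sampled from a position-specific scoring matrix, with some repeated check sequences; Rand: our label for a block that the file lists under HC and that is probably the random mutants of the ten best first-round binders; GP: Gaussian process model; GPLM: also part of the Gaussian process libraries; HC: hill climbing; Gen: genetic algorithm; Gibbs: Gibbs sampling; a sequence that several methods proposed may carry one label only). In AlphaSeq, yeast of one mating type display the scFv and yeast of the other type display the target. Binding brings cells together so that they mate, and sequencing counts the barcode pairs among the diploids. Read counts were normalised to the haploid input and turned into Kd by a linear fit to BCL2-family pairs of known affinity, for each replicate. Each pool was mated in six replicate cultures.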

Each scFv is VH, a 15-residue (Gly4Ser)3 linker, VL, as in the parent Ab-14, and differs from it in the CDRs of the heavy chain only.
VH: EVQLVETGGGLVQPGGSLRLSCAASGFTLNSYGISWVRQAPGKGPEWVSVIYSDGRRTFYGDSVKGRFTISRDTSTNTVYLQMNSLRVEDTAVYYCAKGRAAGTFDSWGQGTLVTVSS
VL: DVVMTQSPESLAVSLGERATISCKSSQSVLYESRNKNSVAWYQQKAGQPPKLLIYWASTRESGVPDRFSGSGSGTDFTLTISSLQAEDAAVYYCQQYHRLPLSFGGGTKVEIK

The parent's heavy chain CDRs are GFTLNSYGIS, VIYSDGRRTFYGDSVK, GRAAGTFDS; each variant's own CDRs replace them letter for letter. Variants here have at most six changes. Numbers give log10(Kd / nM), so 0 is 1 nM and 3 is 1 µM. Smaller is tighter. Where no diploid with the target was found in that replicate, the entry reads "ND": below detection, most likely a poor binder, though not proof of it. The parent sequence was in this pool as ten entries: three were never detected, three once, and four in most replicates, with averages from 0.34 to 2.37.

* GFTLNSYGIS / VIYFDGRRTFYGDSVK / TRAAQTFDS [Ctrl] = ND, ND, ND, ND, ND, ND
* GFTLNEYGIS / VIYSDGRRTFYGDSVK / GRVAVTFDQ [GPLM_HC] = ND, ND, ND, ND, ND, ND
* GFSLNSYGIS / VIYSDGRRTFYADSVK / GKAAGTFDA [GPLM_Gen] = 0.12, 0.11, 0.08, 0.06, 0.15, 0.54
* GFSLNEYGIS / VIYSDGRRTFYGDWVK / GRNAGTFDS [GP_Gen] = 0.11, 2.36, 0.95, ND, ND, 1.02
* GFTFNSYGIS / VIYSDGRRTFYHDSVK / GRWAGTFDS [Ctrl] = ND, ND, ND, ND, ND, ND
* GFTLNSYGVS / VIYRDGRRTFYGDSVK / GRAAGTFLS [Ctrl] = ND, ND, ND, ND, ND, ND
* GFTLNDQGIS / VIYSDGRRTFYGDNVK / GRAAGTFDS [Ctrl] = ND, ND, ND, ND, ND, ND
* GFTLNQYGIS / VIYSDGTRTFYSDSVK / GRTAGTFDS [GPLM_HC] = 0.56, 0.16, 0.19, 0.27, 0.11, 0.18
* GFDLNSYGIS / VIYSDGRRTAYGDSVK / GRETGTFDA [Ctrl] = 0.24, 0.57, 0.30, -0.17, -0.02, 0.25
* GFELNSYGIS / VIYSDGKRTFYGDSVK / GKTAGTFDS [GPLM_Gibbs] = 1.53, 0.72, 0.79, 1.19, 1.98, 0.76
* GFELNSYGIS / VIYSDGRRTFYGDSVK / GRAQGTTDS [Ctrl] = ND, ND, ND, ND, ND, ND
* GFSLNDYGIS / VIYSDGRRTFYGDSVK / GRMAGTFDA [GP_Gibbs] = 0.11, -0.23, 0.35, 0.17, 0.29, 0.58
* GFSLNCYGIS / VIYSDGRRTAYGDSVK / GRAAGTFDS [GP_Gen] = -0.03, 0.15, -0.14, -0.38, 0.06, -0.47
* GFDLNSYGIS / VIYSDGRRTFYGDSVK / GQTAGTFDE [GP_Gen] = 0.08, -0.12, 0.21, -0.08, -0.12, 0.05
* GFSLNNYGIS / VIYSDGRRTFYGDSVK / GRAAGTFDT [GP_Gibbs] = 0.57, 1.19, 0.74, 0.65, 0.78, 0.81
* GFDLNSYGIS / VIYSDGRRTFYHDSVK / GNAAGTFDS [GPLM_Gibbs] = 0.27, 0.84, 0.41, 0.60, 0.57, 0.40
* GFNLNSYGIS / VIYSDGRRTFYADSVK / GKMAGTFDS [GP_Gibbs] = 1.06, 1.23, 0.93, 1.09, 0.86, 1.11
* GFSLNSYGIS / VIYSDGRRTFYCDSVK / GQAAGTFDS [GPLM_Gen] = ND, ND, 1.65, ND, ND, ND
* GFDLNMYGIS / VIYSDGRRTFYADSVK / GKAAGTFDS [GP_Gibbs] = ND, ND, ND, ND, ND, 1.05
* GFDLNSYGIS / VIYSDGRRTFYLDSVK / GRAAVTFDS [GP_HC] = ND, ND, ND, ND, ND, ND
* GFTLNSYGIM / VIYSDGRRTFYDDSVK / GQLAGTTDS [Rand] = ND, ND, ND, ND, ND, ND
* GFTLNSYGIS / VIYSDGRRTFYGNSVR / GRAAGTFDQ [Ctrl] = ND, ND, ND, ND, ND, ND
* GFNLNSYGIS / VIYSDGRRTMYDDSVK / GRQAGTFDS [GP_Gibbs] = ND, ND, ND, 0.36, 1.78, 0.26
* GFTLNSYGIS / VIESDGRRTFYGDSVK / GRTAGTFDS [Ctrl] = ND, ND, ND, ND, 1.28, ND
* GFTLNSYGIS / VIYSDGRRTFYGDSVK / GRAAGTMDV [Ctrl] = ND, ND, ND, ND, ND, ND
* GFELNDYGIS / VIYSDGRRTFYADSVK / GRTAGTFDS [GPLM_Gen] = 0.35, 0.12, -0.14, -0.29, -0.31, -0.16
* GFELNSYGIS / VIYSDGKRTFYADSVK / GRQAGTFDS [GPLM_Gibbs] = 0.49, 0.14, 0.16, 0.36, -0.11, 0.36
* GFTLNSYGIS / VIYSDGRRTYYGDSVR / GRVAGTFDS [Ctrl] = 0.64, 0.21, ND, 1.09, 0.39, 0.77
* GFTLNSYGIS / VIYSDGMRCFYADSVK / GRAAGTFDT [Ctrl] = ND, ND, ND, ND, ND, ND
* GFTLDSYGIS / VIYSDGRRTFYGDSVK / GKAAGTFDM [GP_HC] = 1.20, 0.77, 0.51, 0.27, 0.55, 0.63
* AFDLNSYGIS / VIYSDGRRTFYGDSVK / GRQAGTFDS [GP_HC] = 1.01, 0.91, 1.38, 2.03, 1.09, 1.39
* GFTLQSYGIS / VIYADGRRTFYLDSVK / GQAAGTFVV [Ctrl] = ND, ND, ND, ND, ND, ND
* GFTLNDYGIS / VIYSDGIRTFYGDSVK / GRQAGTFIS [GP_HC] = ND, ND, ND, ND, ND, ND
* GFTLDQYGIS / VIYSDGRRTFYVDSVK / GRAAGTFPS [Ctrl] = ND, ND, ND, ND, ND, ND
* GQTLNSYYIS / VIYSDGRRTFYDDSVK / GQLAGTFDS [Rand] = ND, ND, ND, ND, ND, ND
* GFTLNSYGIS / VIYSDGRRNFYGDSVD / LRAAGAFDL [Ctrl] = ND, ND, ND, ND, ND, ND
* GFTLNDYGIS / VIYSDGRRTFYGDSVK / GRAAVTFDQ [GPLM_HC] = ND, ND, ND, ND, ND, ND
* GFTLQSYGIS / VIYSDGRRTFYGDSVK / GRNAATFDW [Ctrl] = ND, ND, ND, ND, ND, ND
* GFTLNSYGIH / VIYSDGRRTFYLDSVK / GRRAGTFDS [Ctrl] = ND, ND, ND, ND, ND, ND
* GFNLNSYGIS / VIYSDGRRTFYADSVK / GRNAGTFDT [GP_Gibbs] = 1.95, 0.21, -0.09, 0.30, -0.19, 0.29
* GFTLNSYGIS / VIYSDGRRTFYADSVK / GQVAGTFDL [GPLM_Gibbs] = 1.58, 1.76, 0.92, 1.17, 0.94, 0.41
* GFRLNEYGIS / VIYSDGRRTFYGDSVK / GRAAGTFDT [GP_HC] = 0.57, 0.27, 0.31, 0.20, 0.80, 0.79
* GFTLNKYGIS / VIYSDGKRTGYGDSVK / GIAYGTFDS [Ctrl] = ND, ND, ND, ND, 2.60, ND
* GFSLNEYGIS / VIYSDGRRTFYHDWVK / GRTAGTFDS [GP_Gibbs] = ND, 0.51, 0.11, 0.58, 2.79, 1.13
* GFDLNSYGIS / VIYSDGRRTFYADSVK / GRLAGTFDS [GPLM_Gibbs] = 1.13, 0.15, -0.13, 0.31, -0.07, 0.26
* GNDILSYGIS / VIYSDGRRTQYGDSVK / GNAAGTFDS [Ctrl] = ND, ND, ND, ND, ND, ND
* GFDLNSYGIS / VIYSDGKRTFYVDSVK / GRTAGTFDS [GP_Gen] = -0.11, -0.17, -0.37, 0.15, 0.11, -0.41
* GFNLNSYGIS / VIYSDGRRTFYHDSVK / GRAAGTFDS [GPLM_Gen] = 0.32, 0.80, 1.45, 0.90, 0.78, 0.30
* GFTLNSYGIS / VIYSDGRRTFYGDSVK / GRAAGQFDT [Ctrl] = ND, 1.63, ND, ND, 2.16, 1.60
* GFQLNEYGIS / VIYSDGRRTFYGDSVK / GWAAGTFDS [GP_Gen] = 1.05, ND, ND, ND, 0.88, ND
* GFTLNSYGIS / VIYSDGRRTMYADKVK / GRAAGTFDS [Ctrl] = ND, 1.83, ND, 3.29, 2.52, 2.55
* WFTLNEYGIS / VIYSDGRRTFYGDSVK / GRAAVTFDQ [GPLM_HC] = ND, ND, ND, ND, ND, ND

A selection of 6 entries from above:

* GFTLNSYGIH / VIYSDGRRTFYLDSVK / GRRAGTFDS [Ctrl] -> ND, ND, ND, ND, ND, ND
* GFTLDSYGIS / VIYSDGRRTFYGDSVK / GKAAGTFDM [GP_HC] -> 1.20, 0.77, 0.51, 0.27, 0.55, 0.63
* GFSLNEYGIS / VIYSDGRRTFYHDWVK / GRTAGTFDS [GP_Gibbs] -> ND, 0.51, 0.11, 0.58, 2.79, 1.13
* GFTLNSYGVS / VIYRDGRRTFYGDSVK / GRAAGTFLS [Ctrl] -> ND, ND, ND, ND, ND, ND
* GFSLNNYGIS / VIYSDGRRTFYGDSVK / GRAAGTFDT [GP_Gibbs] -> 0.57, 1.19, 0.74, 0.65, 0.78, 0.81
* GFTLNDYGIS / VIYSDGRRTFYGDSVK / GRAAVTFDQ [GPLM_HC] -> ND, ND, ND, ND, ND, ND

The range of this assay differs from that of the first round, and the authors advise against merging the two. Three control strains display no target. For all heavy chain designs, 1% of the pairings with them gave a signal, with a median of 2.08 and one signal in twenty below 0.84, so weak values seen in few replicates may be background. The authors' rule: three or more of the six replicates give a measured affinity, fewer mean a poor binder.

From the AlphaSeq antibody data of Li et al. 2023 (doi:10.1038/s41467-023-39022-2), copy in the FLAb collection.